Values joined by “and” are separate entries in the source; they are usually repeats but may differ in a detail not shown here. Identical values can stand only once. Like-named read-outs stand apart in the source and are kept apart here.
Key:
[1] = tested on: H460 human lung cell line; assay: Cell viability, ATP-LITE assay; format: cell-based
Method: (§1) The activity of the compounds against human cancer cell lines (PC3ML, H460, H1299, RS11846) were assessed by using the ATP-LITE assay (PerkinElmer). All cells were seeded in either F12 or RPMI1640 medium with 5 mM L-glutamine supplemented with 5% fetal bovine serum (Mediatech Inc.), penicillin and streptomycin (Omega). For maintenance, cells were cultured in 5% FBS. Cells plated into 96 well plates at varying initial densities depending on doubling time. H460 and H1299 plated at 2000 cells/well, A549 and PC3 at 3000 cells/well, and RS118456S at 10,000 cells/well. Compounds were diluted to final concentrations with 0.1% DMSO. Prior to dispensing compounds onto cells, fresh 5% media was placed into wells. Administration of compounds occurred 24 hours after seeding into the fresh media. Cell viability was evaluated using ATP-LITE reagent (PerkinElmer) after 72 hours of treatment. Data were normalized to the DMSO control-treated cells using Prism version 5.01 (Graphpad Software).

Sequences of proteins named here, by UniProt entry; tags and fusion partners are left off. Residues count along the entry.
UniProt Q07817, 1-209 limits assumed: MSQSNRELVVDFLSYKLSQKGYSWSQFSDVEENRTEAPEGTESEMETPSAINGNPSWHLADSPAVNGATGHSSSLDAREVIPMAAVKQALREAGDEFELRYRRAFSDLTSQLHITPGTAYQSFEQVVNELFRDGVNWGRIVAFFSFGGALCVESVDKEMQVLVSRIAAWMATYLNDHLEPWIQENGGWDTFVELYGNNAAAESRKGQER

[2] = tested on: BP3 human B-cell lymphoma cell line; assay: Annexin V-FITC and propidium iodide assay; format: cell-based; conditions: read-out: IC50 inhibiting cell growth, BP3
BCL-XL = BCL-XL (Homo sapiens, UniProt Q07817); assay: Competitive fluorescence polarization assay (FPA), Bak BH3 peptide; format: binding; parameters: 100 nM GST-BCL-XL ΔTM protein
Method: For competitive binding assays, 100 nM GST-BCL-XL ΔTM protein was preincubated with the tested compound at varying concentrations in 47.5 μL PBS (pH=7.4) in 96-well black plates at room temperature for 10 min, then 2.5 μL of 100 nM FITC-labeled Bak BH3 peptide was added to produce a final volume of 50 μL. The wild-type and mutant Bak BH3 peptides were included in each assay plate as positive and negative controls, respectively. […] IC50 was determined by fitting the experimental data to a sigmoidal dose-response nonlinear regression model (SigmaPlot 10.0.1, Systat Software, Inc., San Jose, Calif., USA). Data reported are mean of three independent experiments±standard error (SE). […] Fluorescence polarization was measured after 10 min.

PC3ML cells = assay: Cell viability, ATP-LITE assay; format: cell-based, human; conditions: vs Apogossypol
Method: as §1

| Structure (SMILES) | EC50 ([1]; NCI-H460, ATP-LITE assay) | EC50 ([1]; NCI-H460, Table 3, ATP-LITE assay) | IC50 [2] | IC50 (BCL-XL; text b221, read-out: IC50 Bcl-XL) | fold more potent than Apogossypol, PC3ML (PC3ML cells) | IC50 (BCL-XL; FPA IC50 (BCL-XL), Table 9) |
| --- | --- | --- | --- | --- | --- | --- |
| Cc1cc2c(C(=O)NCC(C)c3ccccc3)c(O)c(O)cc2c(O)c1-c1c(C)cc2c(C(=O)NCC(C)c3ccccc3)c(O)c(O)cc2c1O (stereo not drawn) [Compound 8r, 1,1′,6,6′,7,7′-hexahydroxy-3,3′-dimethyl-N^5,N^5′-bis(2-phenylpropyl)-2,2′-binaphthyl-5,5′-dicarboxamide] | 330 nM | 330 nM | 660 nM | 760 nM |  |  |
| Cc1ccc(CC(=O)c2c(O)c(O)cc3c(O)c(-c4c(C)cc5c(C(=O)Cc6ccc(C)cc6)c(O)c(O)cc5c4O)c(C)cc23)cc1 [Compound XII, 1,1′-(1,1′,6,6′,7,7′-hexahydroxy-3,3′-dimethyl-2,2′-binaphthyl-5,5′-diyl)bis(2-p-tolylethanone)] |  |  |  |  | 2-5 | 140 to 450 nM and 320 nM |
